Measured values as given in patent US8530494B2 (priority 2008, dated 2013).
Read-outs that look alike come from different tables or passages of the source.

Chains of the proteins cited; added tags and fusions are not shown.
UniProt P41145, whole entry: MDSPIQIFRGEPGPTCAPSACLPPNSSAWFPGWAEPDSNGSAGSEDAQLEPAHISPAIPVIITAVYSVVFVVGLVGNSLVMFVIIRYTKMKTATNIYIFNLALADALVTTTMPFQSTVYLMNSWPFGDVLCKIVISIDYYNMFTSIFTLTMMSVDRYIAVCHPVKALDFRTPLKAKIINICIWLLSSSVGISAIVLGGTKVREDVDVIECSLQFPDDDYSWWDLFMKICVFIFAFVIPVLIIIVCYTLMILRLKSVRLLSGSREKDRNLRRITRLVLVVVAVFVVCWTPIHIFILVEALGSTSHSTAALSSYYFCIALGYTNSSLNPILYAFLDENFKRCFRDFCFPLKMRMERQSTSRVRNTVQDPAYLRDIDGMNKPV
UniProt P41143, whole entry: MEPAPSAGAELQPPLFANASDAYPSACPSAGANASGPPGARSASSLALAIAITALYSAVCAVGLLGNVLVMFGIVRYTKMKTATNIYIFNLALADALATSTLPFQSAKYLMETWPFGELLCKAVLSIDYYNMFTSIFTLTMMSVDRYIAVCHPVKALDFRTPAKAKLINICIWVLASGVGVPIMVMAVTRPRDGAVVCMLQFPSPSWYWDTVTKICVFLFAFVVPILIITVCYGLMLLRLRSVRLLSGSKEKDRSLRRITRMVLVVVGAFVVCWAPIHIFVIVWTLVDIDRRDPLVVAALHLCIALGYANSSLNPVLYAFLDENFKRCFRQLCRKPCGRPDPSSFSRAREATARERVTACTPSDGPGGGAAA
UniProt P41146, whole entry: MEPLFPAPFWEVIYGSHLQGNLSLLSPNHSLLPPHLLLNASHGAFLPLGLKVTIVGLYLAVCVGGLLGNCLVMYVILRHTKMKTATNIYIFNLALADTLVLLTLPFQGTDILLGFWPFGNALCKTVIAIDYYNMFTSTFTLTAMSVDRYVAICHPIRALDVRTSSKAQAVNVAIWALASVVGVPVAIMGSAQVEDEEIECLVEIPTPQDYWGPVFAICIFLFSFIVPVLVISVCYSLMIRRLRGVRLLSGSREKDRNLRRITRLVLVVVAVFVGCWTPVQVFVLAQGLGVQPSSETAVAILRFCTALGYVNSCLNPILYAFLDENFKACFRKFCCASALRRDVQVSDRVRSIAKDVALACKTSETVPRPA
UniProt P35372, whole entry: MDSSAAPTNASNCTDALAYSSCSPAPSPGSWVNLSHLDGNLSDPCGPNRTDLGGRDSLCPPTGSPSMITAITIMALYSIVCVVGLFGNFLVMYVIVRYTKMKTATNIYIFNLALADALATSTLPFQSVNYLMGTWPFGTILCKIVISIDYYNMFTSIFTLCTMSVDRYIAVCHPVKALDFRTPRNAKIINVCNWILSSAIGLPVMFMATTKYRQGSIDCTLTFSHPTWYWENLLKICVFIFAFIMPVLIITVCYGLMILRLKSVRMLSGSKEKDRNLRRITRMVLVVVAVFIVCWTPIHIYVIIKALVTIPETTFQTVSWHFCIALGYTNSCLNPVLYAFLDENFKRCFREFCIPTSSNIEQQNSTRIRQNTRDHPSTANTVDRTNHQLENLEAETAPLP

Legend:
kappa opioid receptor = kappa opioid receptor (Homo sapiens (Human), UniProt P41145); experiment: κ-opioid receptor functional [35S]GTPγS binding assay; details: for EC50: read-out: GTPγS κ EC50; for GTPγS κ Emax: relative to U69,593
delta opioid receptor = delta opioid receptor (Homo sapiens (Human), UniProt P41143); experiment: δ-opioid receptor functional [35S]GTPγS binding assay; details: for EC50: read-out: GTPγS δ EC50; for GTPγS δ Emax: relative to met-enkephalin
[1] = target: T1, human opioid receptor-like (ORL-1) (Homo sapiens (Human), UniProt P41146); experiment: ORL-1 receptor radioligand binding assay ([3H]-nociceptin); details: for Ki: read-out: Ki ORL-1
μ-opioid receptor = μ-opioid receptor (Homo sapiens (Human), UniProt P35372); experiment: μ-opioid receptor [35S]GTPγS functional assay; details: for EC50: read-out: GTPγS μ EC50; for GTPγS μ Emax: relative to DAMGO
[2] = target: T1, human opioid receptor-like (ORL-1); experiment: ORL-1 receptor functional [35S]GTPγS binding assay; details: for EC50: read-out: GTPγS ORL1 EC50; for GTPγS ORL1 Emax: relative to nociceptin
gastric motility = experiment: Assessment of gastric motility, charcoal meal transit; details: oral gavage

Structure (SMILES) | EC50 (kappa opioid receptor) [nM] | GTPγS κ Emax (kappa opioid receptor) [%] | EC50 (delta opioid receptor) [µM] | GTPγS δ Emax (delta opioid receptor) [%] | GTPγS μ Emax (μ-opioid receptor) [%] | further results
COc1ccc2c3c1O[C@H]1[C@@]4(OC)CC[C@@]5(C[C@@H]4COCc4ccc6ccccc6c4)[C@@H](C2)N(C)CC[C@]315 | 442 | 75.67 | 0.603 | 81 | – | Ki ([1]; μM): > 20 µM
COc1ccc2c3c1O[C@H]1[C@@]4(OC)CC[C@@]5(C[C@@H]4COCc4cccc6ccccc46)[C@@H](C2)N(C)CC[C@]315 | 39.1 | 100 | – | – | – | –
COc1ccc2c3c1O[C@H]1[C@@]4(OC)CC[C@@]5(C[C@@H]4COCc4ccccc4C)[C@@H](C2)N(C)CC[C@]315 | 9.58 | 98 | – | – | – | –
COc1ccc2c3c1O[C@H]1[C@@]4(OC)CC[C@@]5(C[C@@H]4COc4ccccc4)[C@@H](C2)N(CC2CC2)CC[C@]315 | 11.9 | 88.25 | 0.199 | 73 | 3.00 | EC50 (μ-opioid receptor; μM): > 20 µM
COc1ccc2c3c1O[C@H]1[C@@]4(OC)CC[C@@]5(C[C@@H]4COCc4ccc(-c6ccccc6)cc4)[C@@H](C2)N(CC2CC2)CC[C@]315 | 141 | 21.00 | – | – | 1.00 | EC50 (μ-opioid receptor; μM): > 20 µM; Ki ([1]; μM): > 20 µM
C=CCOC[C@H]1C[C@@]23CC[C@]1(OC)[C@@H]1Oc4c(OC)ccc5c4[C@@]12CCN(CC1CC1)[C@@H]3C5 | 21 | 107 | 0.242 | 67 | 23 | EC50 (μ-opioid receptor): 1.49 µM; Ki ORL-1 [1]: inactive
COc1ccc2c3c1O[C@H]1[C@@]4(OC)CC[C@@]5(C[C@@H]4COCc4ccc(C(F)(F)F)cc4)[C@@H](C2)N(CC2CC2)CC[C@]315 | 51.8 | 38.50 | – | 8 | −1.67 | EC50 (μ-opioid receptor; μM): > 20 µM; EC50 (delta opioid receptor; μM): > 20 µM
COc1ccc2c3c1O[C@H]1[C@@]4(OC)CC[C@@]5(C[C@@H]4COCc4cccc(C)c4)[C@@H](C2)N(C)CC[C@]315 | 51.1 | 75.00 | 0.148 | 77 | – | –
COc1cccc(COC[C@H]2C[C@@]34CC[C@]2(OC)[C@@H]2Oc5c(OC)ccc6c5[C@@]23CCN(C)[C@@H]4C6)c1 | 50 | 98 | – | – | – | –
COc1ccc2c3c1O[C@H]1[C@@]4(OC)CC[C@@]5(C[C@@H]4COCc4ccc(Cl)c(Cl)c4)[C@@H](C2)N(CC2CC2)CC[C@]315 | 5.27 | 69.50 | 0.112 | 46 | −1.00 | EC50 [2]: 3610 nM; GTPγS ORL1 Emax [2]: 23.67%; EC50 (μ-opioid receptor; μM): > 20 µM
C#CCOCC1CC23CCC1(OC)C1Oc4c(OC)ccc5c4[C@@]12CCN(C)[C@@H]3C5 (some centres unmarked) | 194 | 66 | 1.57 | 82 | – | Ki ORL-1 [1]: inactive
COc1ccc2c3c1O[C@H]1[C@@]4(OC)CC[C@@]5(C[C@@H]4COCc4ccccc4)[C@@H](C2)N(CC2CC2)CC[C@]315 | 0.18 | 117 | 0.0072 | 69 | 27 | EC50 [2]: 2720 nM; GTPγS ORL1 Emax [2]: 42%; EC50 (μ-opioid receptor): 0.0146 µM
COc1ccc2c3c1O[C@H]1[C@@]4(OC)CC[C@@]5(C[C@@H]4COCc4ccc(C(C)(C)C)cc4)[C@@H](C2)N(C)CC[C@]315 | 473 | 39.00 | 1.01 | 37 | – | –
COc1ccc2c3c1O[C@H]1[C@@]4(OC)CC[C@@]5(C[C@@H]4COCc4ccc6ccccc6c4)[C@@H](C2)N(CC2CC2)CC[C@]315 | 35.1 | 68 | – | – | 0 | EC50 (μ-opioid receptor; μM): > 20 µM
COc1ccc2c3c1OC1C4(OC)CCC5(CC4COCc4ccccc4)[C@@H](C2)N(C)CC[C@]315 (some centres unmarked) | 4.7 | 92 | 0.078 | 113 | – | GTPγS ORL1 Emax [2]: 46%; inhibition of gastric motility (charcoal meal transit) (gastric motility): dose-dependent inhibition of gastric motility
COc1ccc2c3c1O[C@H]1[C@@]4(OC)CC[C@@]5(C[C@@H]4COC/C=C/c4ccccc4)[C@@H](C2)N(CC2CC2)CC[C@]315 | 103 | 63 | – | – | 0 | EC50 (μ-opioid receptor; μM): > 20 µM
COc1ccc2c3c1O[C@H]1[C@@]4(OC)CC[C@@]5(C[C@@H]4COc4ccccc4)[C@@H](C2)N(C)CC[C@]315 | 442 | 75.67 | 0.603 | 81 | – | –
COc1ccc2c3c1O[C@H]1[C@@]4(OC)CC[C@@]5(C[C@@H]4COCC4CCCCC4)[C@@H](C2)N(CC2CC2)CC[C@]315 | 0.24 | 97.33 | 0.0465 | 79 | 28.67 | EC50 (μ-opioid receptor): 0.00897 µM
COc1ccc2c3c1O[C@H]1[C@@]4(OC)CC[C@@]5(C[C@@H]4COCc4ccccc4C)[C@@H](C2)N(CC2CC2)CC[C@]315 | 1.28 | 88 | – | – | 53 | EC50 (μ-opioid receptor): 0.0105 µM
COc1ccc2c3c1O[C@H]1[C@@]4(OC)CC[C@@]5(C[C@@H]4COCc4ccc(Cl)c(Cl)c4)[C@@H](C2)N(C)CC[C@]315 | 34.7 | 73.50 | 0.283 | 66 | – | Ki [1]: 1.3 µM
COc1ccc2c3c1O[C@H]1[C@@]4(OC)CC[C@@]5(C[C@@H]4COCC4CCC4)[C@@H](C2)N(C)CC[C@]315 | 49.3 | 92 | – | – | – | –
COc1ccc2c3c1O[C@H]1[C@@]4(OC)CC[C@@]5(C[C@@H]4COCc4ccncc4)[C@@H](C2)N(C)CC[C@]315 | 222 | 79 | – | – | – | –
COc1ccc2c3c1O[C@H]1[C@@]4(OC)CC[C@@]5(C[C@@H]4COCc4ccc(Cl)cc4)[C@@H](C2)N(C)CC[C@]315 | 1.53 | 42.50 | 1.05 | 53 | – | –
COc1ccc2c3c1O[C@H]1[C@@]4(OC)CC[C@@]5(C[C@@H]4COCc4ccc(OC(F)(F)F)cc4)[C@@H](C2)N(C)CC[C@]315 | 167 | 46 | – | – | – | –
COc1ccc2c3c1O[C@H]1[C@@]4(OC)CC[C@@]5(C[C@@H]4COCc4cccc(C)c4)[C@@H](C2)N(CC2CC2)CC[C@]315 | 2.32 | 81 | – | – | 31 | EC50 (μ-opioid receptor): 0.0174 µM
COc1ccc2c3c1O[C@H]1[C@@]4(OC)CC[C@@]5(C[C@@H]4COCC4CCCCC4)[C@@H](C2)N(C)CC[C@]315 | 0.61 | 87.67 | 0.0463 | 83 | – | –
COc1ccc2c3c1O[C@H]1[C@@]4(OC)CC[C@@]5(C[C@@H]4COCc4ccc(C(C)(C)C)cc4)[C@@H](C2)N(CC2CC2)CC[C@]315 | 194 | 36 | – | – | 0 | EC50 (μ-opioid receptor; μM): > 20 µM
